Assay results published in US9403831B2, “Triazolopyrazine derivative and use thereof” (KOREA RESEARCH INSTITUTE OF CHEMICAL TECHNOLOGY, priority 2013, dated 2016).
Structures can show the parent of a compound that is named as a salt.

Each compound was assayed on gastric cancer cell line Hs746T (assay: Cancer cell proliferation inhibitory test (SRB or MTS assay, 72 hours)). Conditions: read-out: Hs746T IC50; cancer cell (Hs746T) proliferation inhibition, culturing with compound for 72 hours.
Assay type: cell-based, human

Row | SMILES | IC50 [nM]
1 | N#Cc1cccc(-c2cnc3nnn(C[C@@H]4CN(c5ncc(C6=CCNCC6)cn5)CCO4)c3n2)c1 | 9.8
2 | CN1CCN(CCOc2cnc(N3CCO[C@H](Cn4nnc5ncc(-c6cnn(C)c6)nc54)C3)nc2)CC1 | 1.2
3 | CN1CCC(n2cc(-c3cnc(N4CCOC(Cn5nnc6ncc(-c7cnn(C)c7)nc65)C4)nc3)cn2)CC1 (stereo not drawn) | 1.3

The next lines start with the values.

Row | IC50 [nM] | SMILES
4 | 0.7 | N#Cc1cccc(-c2cnc3nnn(C[C@@H]4CN(c5ncc(-c6cnn(C7CCNCC7)c6)cn5)CCO4)c3n2)c1
5 | 1.1 | CN1CC=C(c2cnc(N3CCO[C@H](Cn4nnc5ncc(-c6cccc(C#N)c6)nc54)C3)nc2)CC1 [Chemical formula 25]
6 | 0.9 | N#Cc1cccc(-c2cnc3nnn(C[C@@H]4CN(c5ncc(C6CCN(CCO)CC6)cn5)CCO4)c3n2)c1
7 | 0.1 | Cn1cc(-c2cnc(N3CCO[C@H](Cn4nnc5ncc(-c6ccc(F)c(C#N)c6)nc54)C3)nc2)cn1
8 | 0.7 | Cn1cc(-c2cnc(N3CCO[C@H](Cn4nnc5ncc(-c6cccc(C#N)c6)nc54)C3)nc2)cn1

Same assay, conditions: read-out: Hs746T IC50; cancer cell (Hs746T) proliferation inhibition, culturing with compound for 72 hours; tested form: HCl

Row | SMILES | IC50 [nM]
9 | Cn1cc(-c2cnc3nnn(C[C@@H]4CN(c5ncc(-c6cnn(C7CCNCC7)c6)cn5)CCO4)c3n2)cn1 [Chemical formula 4, (S)-2-((6-(1-methyl-1H-pyrazol-4-yl)-1H-[1,2,3]triazolo[4,5-b]pyrazin-1-yl)methyl)-4-(5-(1-(piperidin-4-yl)-1H-pyrazol-4-yl)pyrimidin-2-yl)morpholine HCl salt] | 0.17
